Three compounds from article PMC3365592 (European Journal of Medicinal Chemistry, 2012) can be followed below.

By UniProt entry, the sequences of proteins in these tests, tags left out.
UniProt P19327, whole entry: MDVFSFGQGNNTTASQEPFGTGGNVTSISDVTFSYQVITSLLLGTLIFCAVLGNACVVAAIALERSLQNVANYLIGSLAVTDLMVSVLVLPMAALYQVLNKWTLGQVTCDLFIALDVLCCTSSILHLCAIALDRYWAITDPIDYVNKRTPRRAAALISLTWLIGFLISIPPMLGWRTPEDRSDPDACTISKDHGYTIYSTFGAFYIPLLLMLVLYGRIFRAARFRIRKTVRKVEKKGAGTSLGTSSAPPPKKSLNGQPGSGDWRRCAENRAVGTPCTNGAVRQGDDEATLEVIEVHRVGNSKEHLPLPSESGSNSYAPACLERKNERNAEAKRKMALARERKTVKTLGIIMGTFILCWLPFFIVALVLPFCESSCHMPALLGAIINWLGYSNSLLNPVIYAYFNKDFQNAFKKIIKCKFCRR

SMILES strings stand for the structures.

The target of this test is 5-HT1A receptors (Rattus norvegicus, UniProt P19327). Kind of test: 5-HT1A receptor binding experiments.
Broadly, the Ki is the dissociation constant of the complex between target and ligand, obtained from inhibition or displacement. Low readings indicate tighter binding, high ones weaker binding. The compound `CC(=O)Nc1ccc2nc(N3CCN(CCCCN4C(=O)CC5(CCCC5)CC4=O)CC3)ccc2c1` [Compound 11, N-(2-{4-[4-(7,9-Dioxo-8-azaspiro[4.5]dec-8-yl)butyl]piperazin-1-yl}quinolin-6-yl)-acetamide] returned an inhibition constant (Ki) of 3200 ± 800 nM. As for `CC1CN(c2ccc3cc([N+](=O)[O-])ccc3n2)CCN1CCCCN1C(=O)CC2(CCCC2)CC1=O` (stereo not drawn) [Compound 5, 8-{4-[2-Methyl-4-(6-nitro-quinolin-2-yl)-piperazin-1-yl]-butyl}-8-aza-spiro[4.5]-decane-7,9-dione], the figure is 777 ± 118 nM. The compound `CC1CN(c2ccc3cc([N+](=O)[O-])ccc3n2)CCN1CCCCN1C(=O)CC(C)(C)CC1=O` (stereo not drawn) [Compound 7, 4,4-Dimethyl-1-{4-[2-methyl-4-(6-nitro-quinolin-2-yl)-piperazin-1-yl]-butyl}-piperidine-2,6-dione] came in with a Ki of 221 ± 34.6 nM. This Ki is about 3.5-fold lower than that of the compound before.
